# Binding of CDR-mutated scFvs to a peptide of the spike HR2 region

Reference: Engelhart et al. 2022, doi:10.1038/s41597-022-01779-4. File: FLAb, binding data.

Antigen: PDVDLGDISGINAS, a 14-residue peptide of the SARS-CoV-2 spike HR2 region.

Parent: Ab-14, a human scFv built as VH, the linker GGGGSGGGGSGGGGS, VL. Only the CDRs of the light chain vary.
VH: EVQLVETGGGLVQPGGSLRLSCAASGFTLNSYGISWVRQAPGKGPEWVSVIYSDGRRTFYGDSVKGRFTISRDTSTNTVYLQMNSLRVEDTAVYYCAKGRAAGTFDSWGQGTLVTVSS
VL: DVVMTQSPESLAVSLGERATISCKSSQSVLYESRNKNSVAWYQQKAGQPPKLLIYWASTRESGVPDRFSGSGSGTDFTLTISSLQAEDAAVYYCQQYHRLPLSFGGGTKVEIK

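Phage display of a naive human antibody library on the peptide gave the parent. In library AAYL50, one, two or three CDR residues were substituted; doubles and triples were drawn at random. Affinity was read by AlphaSeq, a pooled yeast mating assay with surface-displayed partners. After mating in shaken culture at 30 °C for 16 h, diploids were selected and their barcode pairs sequenced. Read counts were normalised to the haploid input and turned into Kd by a linear fit to BCL2-family pairs of known affinity, for each replicate. The assay was run in three technical replicates.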

Each variant is given by its three light chain CDRs, as the data file delimits them; those of the parent are KSSQSVLYESRNKNSVA, WASTRES, QQYHRLPLS. Every variant below is changed at E32 of the VL (sequential numbering). Values are apparent Kd, the geometric mean of the replicates that gave a signal; lower means stronger binding. "no signal" marks a missing value. The strain was present, yet no cells mated with the target were sequenced in any replicate, which points to weak or no binding. The list is sorted by this average, lowest first, undetected variants last. Nonspecific signal, from three strains lacking the peptide, appeared in 18% of pairings of library AAYL50, centred on 15 µM (5% of these signals below 970 nM); values are not corrected for it.

For KSSQSVLYIKRNKISVA | WASTRES | QQYHRLPLS, the assay gave 4.3 nM (3 of 3 replicates). For KSSQSVLYASRNKNSVA | WAETRES | QQYHRLPLS, the assay gave 15 nM (3 of 3 replicates). With KSTQSVLYHSRNKNSVA | WASTRES | QQYYRLPLS the result was 52 nM (3 of 3 replicates). The variant KSSQSVLYQSRNKNSVA | WASTRES | QKYHRLPLS showed 62 nM (3 of 3 replicates). The variant KSSQSVLYNSRNKNSVA | WASWRES | QQYHMLPLS gave 290 nM (3 of 3 replicates). The variant KSSQSVLYRSRNGNSVA | WSSTRES | QQYHRLPLS gave 420 nM (3 of 3 replicates). With KSSQSRLYRSRGKNSVA | WASTRES | QQYHRLPLS the result was 440 nM (2 of 3 replicates). With KSSQSVLYNSRNKNSVD | WASTRES | QQGHRLPLS the result was 7.9 µM (1 of 3 replicates). The variant KSSQSVLYISRNKGSVA | WASTRES | QQYHRLPLW gave 680 µM (1 of 3 replicates).

With KSIQSVLYHSRNKQSVA | WASTRES | QQYHRLPLS the result was 970 µM (2 of 3 replicates). The variant KSSQSVNYKSRNKNSVA | WASTRES | QQYHRLPLK showed no signal (0 of 3 replicates). With KSSQSVLYISRNKNSVA | WASTRES | QQPHRLKLS the result was no signal (0 of 3 replicates). The variant RSSQSVEYNSRNKNSVA | WASTRES | QQYHRLPLS showed no signal (0 of 3 replicates).

Repeated from above, the 2 best binders with a signal in all replicates:

{"CDR-L1": "KSSQSVLYIKRNKISVA", "CDR-L2": "WASTRES", "CDR-L3": "QQYHRLPLS", "apparent Kd": "4.3 nM", "detected": "3/3"}
{"CDR-L1": "KSSQSVLYASRNKNSVA", "CDR-L2": "WAETRES", "CDR-L3": "QQYHRLPLS", "apparent Kd": "15 nM", "detected": "3/3"}

Parent in this assay: reference entry 4.4 nM, copy in this library 48 nM.